## Yeast mating assay 1: variants of the scFv Ab-14

Reference: Engelhart et al. 2022, doi:10.1038/s41597-022-01779-4. File: FLAb, binding data.

Target peptide (SARS-CoV-2 spike, HR2 region): PDVDLGDISGINAS

Parent scFv Ab-14: VH joined to VL by a 15-residue (Gly4Ser)3 linker. Changes lie in the heavy chain CDRs alone.
VH: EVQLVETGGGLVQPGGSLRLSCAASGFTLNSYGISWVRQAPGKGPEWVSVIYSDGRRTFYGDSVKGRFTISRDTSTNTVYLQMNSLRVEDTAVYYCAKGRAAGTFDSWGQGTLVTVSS
VL: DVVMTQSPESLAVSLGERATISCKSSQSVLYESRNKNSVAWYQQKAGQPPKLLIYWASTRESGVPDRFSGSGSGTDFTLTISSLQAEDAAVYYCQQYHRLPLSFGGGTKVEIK

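Variants in AAYL49 differ from the parent at up to three CDR positions; double and triple changes were sampled at random. AlphaSeq pools MATa yeast showing the antibodies with MATalpha yeast showing the peptide. After mating in shaken culture at 30 °C for 16 h, diploids were selected and their barcode pairs sequenced. A regression on co-assayed BCL2-family reference pairs converts the normalised counts of each replicate to an apparent Kd. The assay was run in three technical replicates.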

The whole VH of each variant is written out. Scale: log10 of Kd in nM, estimated from mating counts; low values are strong binders. A mean of the replicates is given; it leaves out those without a signal. A pair that was not seen in any replicate is written "not detected"; this usually means weak binding, but a binder can also be missed.

mean log10 Kd (nM),seen in,VH
not detected,0 of 3,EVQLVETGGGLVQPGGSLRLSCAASGFTLNSYGISWVRQAPGKGPEWVSVCVSMGRRTFYGDSVKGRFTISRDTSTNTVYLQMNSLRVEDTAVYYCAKGRAAGTFDSWGQGTLVTVSS
not detected,0 of 3,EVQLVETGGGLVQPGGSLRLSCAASGFTLNSYGISWVRQAPGKGPEWVSVIYSDGRRTAYGDSVKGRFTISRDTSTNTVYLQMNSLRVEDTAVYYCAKGRGAGKFDSWGQGTLVTVSS
not detected,0 of 3,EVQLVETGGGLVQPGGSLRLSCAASGFTLGSYGDSWVRQAPGKGPEWVSVIYSDGRRTFYGDIVKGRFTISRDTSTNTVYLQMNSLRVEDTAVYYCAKGRAAGTFDSWGQGTLVTVSS
not detected,0 of 3,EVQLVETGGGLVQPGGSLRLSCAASGFTLNKYGISWVRQAPGKGPEWVSVIYSDRRRTFYGDSVNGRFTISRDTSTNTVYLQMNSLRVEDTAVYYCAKGRAAGTFDSWGQGTLVTVSS
not detected,0 of 3,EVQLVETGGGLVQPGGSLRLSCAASGFTLNSYGISWVRQAPGKGPEWVSVIYSDGRRTFNGDSNKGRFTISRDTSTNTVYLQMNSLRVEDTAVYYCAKGRAAGDFDSWGQGTLVTVSS
1.94,3 of 3,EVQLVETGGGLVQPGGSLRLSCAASGFTLNSYGISWVRQAPGKGPEWVSVIYSDGRRTFYGDSVKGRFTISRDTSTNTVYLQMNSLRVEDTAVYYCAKGPAAGTFWDWGQGTLVTVSS
3.50,1 of 3,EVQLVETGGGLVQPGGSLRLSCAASGFTLNSYGISWVRQAPGKGPEWVSVIYSDYRRTFYGDSVDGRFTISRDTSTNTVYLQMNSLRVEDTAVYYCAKGRAAGTFYSWGQGTLVTVSS
not detected,0 of 3,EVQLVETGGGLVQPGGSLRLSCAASGFKLNSYMISWVRQAPGKGPEWVSVIYSDGRRTFYGDSVKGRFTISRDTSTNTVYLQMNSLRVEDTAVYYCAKGRQAGTFDSWGQGTLVTVSS
not detected,0 of 3,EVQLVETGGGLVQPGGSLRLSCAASGFTLNSYGISWVRQAPGKGPEWVSHIYSDGRRTFYGDSWKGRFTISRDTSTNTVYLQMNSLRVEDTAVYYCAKGRADGTFDSWGQGTLVTVSS
3.53,1 of 3,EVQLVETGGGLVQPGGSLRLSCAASGFTGNSYGIQWVRQAPGKGPEWVSVIYSDGRNTFYGDSVKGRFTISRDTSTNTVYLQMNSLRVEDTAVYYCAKGRAAGTFDSWGQGTLVTVSS
5.15,2 of 3,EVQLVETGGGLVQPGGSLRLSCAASGFTLASYGISWVRQAPGKGPEWVSVIYRDGRRTFYGDSVKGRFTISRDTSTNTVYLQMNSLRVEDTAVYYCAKGRAAGTFDSWGQGTLVTVSS
2.79,1 of 3,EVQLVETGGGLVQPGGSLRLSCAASGFTLNSYGASWVRQAPGKGPEWVSVIYSDGRRTFYGDSVKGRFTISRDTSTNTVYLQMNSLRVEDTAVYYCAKGRAAGTFDNWGQGTLVTVSS
5.17,2 of 3,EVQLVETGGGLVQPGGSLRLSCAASGFTNNSHGISWVRQAPGKGPEWVSVIYSDGRRTFYGDSVKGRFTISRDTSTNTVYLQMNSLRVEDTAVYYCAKPRAAGTFDSWGQGTLVTVSS
4.75,2 of 3,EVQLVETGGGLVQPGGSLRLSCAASGFALNSYWISWVRQAPGKGPEWVSVIYSDGRRTFYGDSVKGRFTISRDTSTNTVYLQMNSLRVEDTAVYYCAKGRAAGTFDYWGQGTLVTVSS
not detected,0 of 3,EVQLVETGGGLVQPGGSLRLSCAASGFTLNSYGISWVRQAPGKGPEWVSVIYSDGRRRKYGWSVKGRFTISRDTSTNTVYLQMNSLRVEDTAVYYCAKGRAAGTFDSWGQGTLVTVSS
3.46,1 of 3,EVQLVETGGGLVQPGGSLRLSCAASGETLGSYGISWVRQAPGKGPEWVSVIYSDGRRTFYGDSVKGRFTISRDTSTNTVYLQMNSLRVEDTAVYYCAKGLAAGTFDSWGQGTLVTVSS
5.22,1 of 3,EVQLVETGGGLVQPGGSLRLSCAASGFTLNRYGISWVRQAPGKGPEWVSVIYGDGRRTFYGDSVWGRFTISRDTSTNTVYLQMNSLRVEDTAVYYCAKGRAAGTFDSWGQGTLVTVSS
5.62,3 of 3,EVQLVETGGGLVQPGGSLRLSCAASGFTLNSFGISWVRQAPGKGPEWVSVIYSYGRRTFYGRSVKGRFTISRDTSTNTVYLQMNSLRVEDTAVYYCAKGRAAGTFDSWGQGTLVTVSS
4.53,1 of 3,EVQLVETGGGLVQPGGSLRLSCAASGPTLNSYGISWVRQAPGKGPEWVSVIYSDGRYTFYGDSVKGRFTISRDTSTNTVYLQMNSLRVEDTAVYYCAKGRAAGTFDSWGQGTLVTVSS
1.52,3 of 3,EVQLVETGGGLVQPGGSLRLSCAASGFDLNSLGISWVRQAPGKGPEWVSVIYSDGRRMFYGDSVKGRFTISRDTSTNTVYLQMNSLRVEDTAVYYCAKGRAAGTFDSWGQGTLVTVSS
3.91,1 of 3,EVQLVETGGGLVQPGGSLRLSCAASGFTLNSDGISWVRQAPGKGPEWVSVMYSDGRRAFYGDSVKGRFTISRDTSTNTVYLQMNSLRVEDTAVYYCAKGRAAGTFDSWGQGTLVTVSS
not detected,0 of 3,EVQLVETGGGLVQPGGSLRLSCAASGFTLNSYGISWVRQAPGKGPEWVSVIYSDGRRTFYGASVKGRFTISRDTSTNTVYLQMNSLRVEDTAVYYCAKGRAAGTPNSWGQGTLVTVSS
not detected,0 of 3,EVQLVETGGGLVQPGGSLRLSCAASGFTLNSYGISWVRQAPGKGPEWVSVIYKDGRRTMYGDSGKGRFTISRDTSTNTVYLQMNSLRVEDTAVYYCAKGRAAGTFDSWGQGTLVTVSS
4.18,2 of 3,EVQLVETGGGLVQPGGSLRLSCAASGFTLNSYGISWVRQAPGKGPEWVSHIYSDGIRTFYGDSVKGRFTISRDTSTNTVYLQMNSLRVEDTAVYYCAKGRAVGTFDSWGQGTLVTVSS
not detected,0 of 3,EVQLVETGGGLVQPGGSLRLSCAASGFTLNSYNISWVRQAPGKGPEWVSVIYSVGRRTFYGYSVKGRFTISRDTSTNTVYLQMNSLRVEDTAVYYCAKGRAAGTFDSWGQGTLVTVSS

Repeated from above, the 2 best binders with a signal in all replicates:

VH,mean log10 Kd (nM),seen in
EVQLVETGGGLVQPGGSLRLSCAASGFDLNSLGISWVRQAPGKGPEWVSVIYSDGRRMFYGDSVKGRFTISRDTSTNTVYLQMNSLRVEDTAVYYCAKGRAAGTFDSWGQGTLVTVSS,1.52,3 of 3
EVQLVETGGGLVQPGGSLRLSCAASGFTLNSYGISWVRQAPGKGPEWVSVIYSDGRRTFYGDSVKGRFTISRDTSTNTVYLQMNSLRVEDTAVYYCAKGPAAGTFWDWGQGTLVTVSS,1.94,3 of 3

Empty control strains, which show no peptide, gave a signal in 15% of pairings with library AAYL49; the median was 4.06 and 95% of these signals were weaker than 2.83. No background was subtracted.